Laboratory results published in patent US7229960B2, “Methods and compositions for inhibiting GRB7” (University of Vermont and State Agricultural College, priority 2000, dated 2007).
Entries after “also recorded” stand apart in the source; their conditions may differ.

Sequences of proteins named here, by UniProt entry; tags and fusion partners are left off.
UniProt P62993, whole entry: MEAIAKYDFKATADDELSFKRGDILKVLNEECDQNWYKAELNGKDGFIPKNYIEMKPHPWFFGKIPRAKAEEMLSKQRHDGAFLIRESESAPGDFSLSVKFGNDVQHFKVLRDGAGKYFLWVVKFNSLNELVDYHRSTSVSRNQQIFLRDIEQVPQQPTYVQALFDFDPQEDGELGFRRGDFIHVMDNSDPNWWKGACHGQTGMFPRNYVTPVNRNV

Target: T1, association of Grb2 with the ErbB family (Homo sapiens, UniProt P62993)
T1 construct: association of Grb2, compared to Grb7, co-precipitating with the tyrosine phosphorylated ErbB family; endogenous in cells
Test: Co-precipitation of Grb2 with tyrosine phosphorylated ErbB family in SKBR3 cell lysate
Assay type: binding
Conditions: 1-100 uM peptide, anti-phosphotyrosine at 185 kDa, densitometry; listed as G7-18NATE
Description: This analysis includes monitoring Grb2 association with the ErbB family in the presence of G7-18NATE to test the specificity of G7-18NATE binding.

Substance: ^WFEG YDN TFP C^ [G7BP-5NATE]
- Effect on association of Grb2 with the ErbB family: not Grb2; also recorded: negligible effect
